Data published in ChEMBL document CHEMBL4011642, “Potent, Selective, and Cell Active Protein Arginine Methyltransferase 5 (PRMT5) Inhibitor Developed by Structure-Based Virtual Screening and Hit Optimization” (J Med Chem, 2017).

By UniProt entry, the sequences of proteins in these tests, tags left out.
UniProt Q96LA8, whole entry: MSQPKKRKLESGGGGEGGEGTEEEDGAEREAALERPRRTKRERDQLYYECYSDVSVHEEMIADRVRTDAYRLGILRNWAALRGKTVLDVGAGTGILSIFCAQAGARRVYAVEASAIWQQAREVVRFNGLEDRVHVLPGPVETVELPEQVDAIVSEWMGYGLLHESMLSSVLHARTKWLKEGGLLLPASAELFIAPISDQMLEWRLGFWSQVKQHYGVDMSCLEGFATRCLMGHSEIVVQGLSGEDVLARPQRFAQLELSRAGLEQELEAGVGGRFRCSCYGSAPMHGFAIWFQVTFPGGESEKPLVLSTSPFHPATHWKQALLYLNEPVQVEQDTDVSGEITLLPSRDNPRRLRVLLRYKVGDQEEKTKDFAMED

Legend:
[1] = target: Protein arginine N-methyltransferase 6 (Homo sapiens, UniProt Q96LA8); assay: Inhibition of recombinant human N-terminal His-tagged PRMT6 (2 to 375 residues) expressed in Escherichia coli using of histone H3 as substrate preincubated for 15 mins followed by substrate/S-adenosyl methionine addition measured after 60 mins by alpha LISA assay
[2] = target: T1, Protein arginine N-methyltransferase 7 (Homo sapiens, UniProt Q9NVM4); assay: Inhibition of recombinant human N-terminal His-tagged full length PRMT7 expressed in baculovirus using of histone H4 as substrate preincubated for 15 mins followed by substrate/[3H]-SAM addition measured after 240 mins
T1 sequence (Q9NVM4 whole entry): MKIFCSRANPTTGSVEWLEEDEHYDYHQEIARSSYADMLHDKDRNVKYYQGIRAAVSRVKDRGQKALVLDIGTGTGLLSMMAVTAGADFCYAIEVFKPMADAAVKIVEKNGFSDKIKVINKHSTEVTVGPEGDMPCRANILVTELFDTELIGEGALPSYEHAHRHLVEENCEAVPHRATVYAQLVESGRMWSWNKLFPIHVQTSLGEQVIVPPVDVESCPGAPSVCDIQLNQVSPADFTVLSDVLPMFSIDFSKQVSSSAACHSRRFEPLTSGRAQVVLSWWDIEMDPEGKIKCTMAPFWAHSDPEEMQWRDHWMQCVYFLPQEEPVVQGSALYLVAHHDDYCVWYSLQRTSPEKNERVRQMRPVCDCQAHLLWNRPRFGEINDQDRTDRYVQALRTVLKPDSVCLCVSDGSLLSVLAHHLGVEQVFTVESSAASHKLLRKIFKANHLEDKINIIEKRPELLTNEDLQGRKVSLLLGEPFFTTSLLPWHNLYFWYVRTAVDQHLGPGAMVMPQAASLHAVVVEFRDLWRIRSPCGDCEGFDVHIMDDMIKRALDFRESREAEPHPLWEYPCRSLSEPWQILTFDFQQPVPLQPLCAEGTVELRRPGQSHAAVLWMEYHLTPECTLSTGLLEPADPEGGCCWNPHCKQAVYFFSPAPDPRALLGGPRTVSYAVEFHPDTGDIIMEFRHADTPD

Structure (SMILES): COC(=O)c1ccccc1NC(=O)CSc1nc2cc(OC)ccc2[nH]1
- IC50 [1]: > 100 µM
- IC50 [2]: > 100 µM
